# Reference: PMC12763877, “Novel APLNR antagonist candesartan induces tumor vascular normalization through ROS/cGAS/STING axis and augmented sunitinib response in breast cancer” (Journal of Experimental & Clinical Cancer Research : CR, 2025)
# System: 4T1 cells (orthotopic breast cancer)
# Experiment: Anti-tumor efficacy in breast cancer mouse model, alone or with Sunitinib
# Assay type: in vivo, BALB/c mice
# Conditions: candesartan 10 mg/kg once daily, Sunitinib 40 mg/kg every two days, intragastric, 14 days; vs vehicle
smiles,measurement,value
CCN(CC)CCNC(=O)c1c(C)[nH]c(/C=C2\C(=O)Nc3ccc(F)cc32)c1C [Sunitinib],Tumor growth,significantly reduce the tumor growth
